Results from US20100028360A1, “METHODS FOR THE MODULATION OF BRAIN PROGESTAGEN SIGNALING IN THE PREVENTION AND TREATMENT OF NEUROLOGICAL DISORDERS AND NEURODEGENERATIVE DISEASES” (priority 2008, published 2010).

Tests used:
[1] = system: neuroblastoma cells; conditions: cited from earlier work
[2] = system: hESC; assay: P4 synthesis and secretion by hESC, ELISA of P4 in media; assay type: cell-based, human
Text: Results are expressed as ug P4/ug cellular protein (mean±SEM, n=3, *p<0.001).

Substance | cytotoxicity [1] | oxidative stress [1] | tau phosphorylation [1] | P4 synthesis and secretion from hESC ([2]; hCG 500 mIU/mL each day for 6 d) | cholesterol transport by steroidogenic acute regulatory protein (StAR) in hESC ([2]; hESC treated with hCG)
LH: luteinizing hormone, a gonadotropin | induces cytotoxicity | increases oxidative stress | dose-dependently alters tau phosphorylation |  | 
hCG: Human chorionic gonadotropin |  |  |  | induces P4 synthesis and secretion | rapidly upregulated cholesterol transport by steroidogenic acute regulatory protein (StAR)
